The source of these data is patent US9072774B2, “Porphyrin nanovesicles” (UNIVERSITY HEALTH NETWORK, priority 2009, dated 2015).

The data set in a line: Differential scanning calorimetry. In kind it is physicochemical. The following applies: 5 mg/ml in PBS, scan rate 1° C./min. As for the experimental part:
Differential scanning calorimetry was performed on 5 mg/ml samples of DMPC, HSPC, Lyso PC and Pyro-Lipid in PBS using a calorimetry Sciences Corp. 6100 Nano Differential Scanning calorimeter (Lindon, Utah). Samples were placed in a vacuum for 30 min prior to measurement. A scan rate of 1° C./min was used for all samples. PBS was used as the reference and one scan cycle of PBS was used as the baseline. For each lipid, three cooling and heating scans were performed and the results averaged to determine the phase transition temperature of the lipids.
In general terms: DSC measures the heat that a sample takes up or gives off during a temperature scan.

Turning to “Lyso-Phosphatidyl Choline (16:0)-Pyropheophorbide [Pyro-lipid]”, the transition temperature entry is on record as “no distinct transition temperature”.
